Measured values: ChEMBL document CHEMBL4610077, “CDK7 Inhibitors in Cancer Therapy: The Sweet Smell of Success?” (J Med Chem, 2020)

Sequences of proteins named here, by UniProt entry; tags and fusion partners are left off. A change or cut given only in a name is not applied to a line headed by its entry.
UniProt P50613: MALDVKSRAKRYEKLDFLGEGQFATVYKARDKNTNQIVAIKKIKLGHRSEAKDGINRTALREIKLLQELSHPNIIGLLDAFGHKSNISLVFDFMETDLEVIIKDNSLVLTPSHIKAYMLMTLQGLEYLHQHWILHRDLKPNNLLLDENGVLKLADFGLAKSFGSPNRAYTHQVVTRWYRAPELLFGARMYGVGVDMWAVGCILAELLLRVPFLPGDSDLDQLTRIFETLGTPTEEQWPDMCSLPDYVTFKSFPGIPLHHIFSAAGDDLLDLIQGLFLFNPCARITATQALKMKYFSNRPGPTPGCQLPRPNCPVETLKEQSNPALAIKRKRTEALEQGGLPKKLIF

Molecular target: Cyclin-dependent kinase 7 (Homo sapiens, UniProt P50613)
Assay: Inhibition of CDK7 (unknown origin) assessed as ratio of Kinact to Ki

Ratio: 0.131 µM⁻¹ s⁻¹
Compound: CN(C)C/C=C/C(=O)Nc1ccc(C(=O)N[C@@]2(C)CCC[C@@H](Nc3ncc(Cl)c(-c4c[nH]c5ccccc45)n3)C2)nc1
